# Results as given in US11579152B2, “Engineered hERG channel proteins, vesicles and methods of identifying small molecule pharmacological agents” (priority 2016, dated 2023).
# Protein sequences, listed by entry. Tags and fused reporters are not part of them. Chains listed by the source or under a name are the forms on record and can include a tag or linker.
# UniProt Q12809, with tags, fused parts or gaps DEL141-380/DEL871-1005: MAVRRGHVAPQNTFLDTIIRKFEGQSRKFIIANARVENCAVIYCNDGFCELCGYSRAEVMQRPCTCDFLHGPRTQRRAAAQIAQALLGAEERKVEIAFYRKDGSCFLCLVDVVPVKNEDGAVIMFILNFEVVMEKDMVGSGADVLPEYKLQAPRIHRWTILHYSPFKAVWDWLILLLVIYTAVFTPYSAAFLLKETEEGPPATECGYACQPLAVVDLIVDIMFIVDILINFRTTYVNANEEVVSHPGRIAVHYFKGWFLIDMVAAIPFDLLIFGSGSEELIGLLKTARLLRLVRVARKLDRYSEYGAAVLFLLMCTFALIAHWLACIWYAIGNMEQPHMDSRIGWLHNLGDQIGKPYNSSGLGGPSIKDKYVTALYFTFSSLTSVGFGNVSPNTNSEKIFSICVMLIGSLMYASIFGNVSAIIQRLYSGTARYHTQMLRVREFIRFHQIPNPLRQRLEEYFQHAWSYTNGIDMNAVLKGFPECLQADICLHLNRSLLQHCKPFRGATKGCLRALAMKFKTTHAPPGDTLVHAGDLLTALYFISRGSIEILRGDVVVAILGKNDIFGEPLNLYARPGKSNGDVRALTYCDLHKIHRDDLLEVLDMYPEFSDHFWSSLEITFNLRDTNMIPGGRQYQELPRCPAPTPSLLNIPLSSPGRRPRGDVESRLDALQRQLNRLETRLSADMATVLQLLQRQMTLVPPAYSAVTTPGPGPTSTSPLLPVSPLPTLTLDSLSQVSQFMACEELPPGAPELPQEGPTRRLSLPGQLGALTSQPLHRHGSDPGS
# Like-named read-outs stand apart in the source and are kept apart here.
# Tests used:
# hERG channel = hERG channel (Homo sapiens, UniProt Q12809, DEL141-380/DEL871-1005); assay: biochemical
# hERG = hERG (Homo sapiens, UniProt Q12809); conditions: cited from earlier work
SMILES,IC50 (hERG channel) [nM],"IC50 (hERG; read-out: IC50 patch, electrophysiology-determined values reported in the literature) [nM]",IC50 (hERG) [nM]
Fc1ccc(C(OCCN2CCN(CCCc3ccccc3)CC2)c2ccc(F)cc2)cc1 [GBR-12909],233 ± 22,7,–
O=C1Cc2cc(CCN3CCN(c4nsc5ccccc45)CC3)c(Cl)cc2N1 [Ziprasidone],4060 ± 475,–,120 to 240
